# Experimental data taken from ChEMBL document CHEMBL5725614, “Histone demethylase inhibitors” (2018).
# Test: PHF8 Assay: The ability of test compounds to inhibit the activity of PHF8 was determined in 384-well plate format under the following reaction conditions: 3 nM PHF8, 200 nM H3K9me1-biotin labeled peptide (Anaspec cat #64358), 0.5 μM alpha-ketoglutaric acid in assay buffer of 50 mM HEPES, pH7.3, 0.005% Brij35, 0.5 mM TCEP, 0.2 mg/ml BSA, 50 μM sodium L-ascorbate, and 5 μM ammonium iron(II) sulfate. Reaction product was determined quantitatively by TR-FRET after the addition of detection reagent Phycolink Streptavidin-allophycocyanin (Prozyme) and Europium-anti-unmodified-histone H3 lysine 9/lysine27 (H3K9/K27) antibody (PerkinElmer) in the presence of 5 mM EDTA in LANCE detection buffer (PerkinElmer) at a final concentration of 25 nM and 0.5 nM, respectively.The assay reaction was initiated by the following: 2 μl of the mixture of 600 nM H3K9me1-biotin labeled peptide and 1.5 μM alpha-ketoglutaric acid with 2 μl of 11-point serial diluted inhibitor in 3% DMSO were added to each well of the plate, followed by the addition of 2 μl of 9 nM PHF8 to initiate the reaction. The reaction mixture was incubated at room temperature for 15 minutes, and terminated by the addition of 6 μl of 5 mM EDTA in LANCE detection buffer containing 50 nM Phycolink Streptavidin-allophycocyanin and 1 nM Europium-anti-unmodified H3K9/K27 antibody. Plates were read by EnVision Multilabel Reader in TR-FRET mode (excitation at 320 nm, emission at 615 nm and 665 nm) after 1 hour incubation at room temperature. A ratio was calculated (665/615) for each well and fitted to determine inhibition constant (IC50).
row,IC50,Compound
1,in the range around 0.55 µM,Cn1cnc(-c2cc(-c3c[nH]nn3)ccn2)c1
2,in the range around 5.5 µM,FC(F)(F)Cn1cnc(-c2cc3[nH]nnc3cn2)c1
3,in the range around 5.5 µM,Cn1cnc(-c2cc3[nH]nnc3cn2)c1-c1ccc(F)cc1OCC1CC1
